Test results: patent publication US20250223354A1

The chains behind the UniProt entries cited, without tags or fusion partners. A line that says so, or that is headed by a name, gives the form on record, which may keep a tag or linker. Residues count along the entry.
UniProt Q6DKI7, 41-171 limits assumed, form in doubt: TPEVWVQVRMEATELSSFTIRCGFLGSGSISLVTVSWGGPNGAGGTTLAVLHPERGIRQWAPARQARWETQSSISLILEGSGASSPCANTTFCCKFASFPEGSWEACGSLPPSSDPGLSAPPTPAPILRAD
UniProt Q6DKI7, 41-326 limits assumed, form in doubt: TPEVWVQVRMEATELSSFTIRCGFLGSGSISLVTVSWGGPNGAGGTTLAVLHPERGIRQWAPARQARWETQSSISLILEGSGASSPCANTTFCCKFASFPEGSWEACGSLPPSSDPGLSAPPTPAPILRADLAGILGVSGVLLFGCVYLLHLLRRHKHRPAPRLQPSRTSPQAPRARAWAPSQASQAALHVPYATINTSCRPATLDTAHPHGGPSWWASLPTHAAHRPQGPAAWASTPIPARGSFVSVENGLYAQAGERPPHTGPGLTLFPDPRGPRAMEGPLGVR

Tests used:
[1] = biological target: human PVRIG protein with mouse IgG2a Fc tag (human; mouse) (UniProt Q6DKI7); experiment: flow cytometry, competition: human PVRIG-mouse IgG2a Fc (1 ug/mL) binding to CHO-huCD112 cells
[2] = biological target: cynomolgus PVRIG overexpressed on CHO cells (cynomolgus); experiment: flow cytometry, CHO-cynoPVRIG cells
[3] = biological target: human PVRIG expressed on cells (human) (UniProt Q6DKI7); experiment: flow cytometry, CHO-huPVRIG cells

**Q.** Which results are given for COM701-G4 (antibody)?
**A.** IC50 [1]: 1.1 nM; EC50 [2]: 3.58 nM; EC50 [3]: 6.42 nM
